# Test results taken from PubChem BioAssay AID623877 (Johns Hopkins Ion Channel Center, 2012).
# The chains behind the UniProt entries cited, without tags or fusion partners.
# UniProt Q8BHY3, whole entry: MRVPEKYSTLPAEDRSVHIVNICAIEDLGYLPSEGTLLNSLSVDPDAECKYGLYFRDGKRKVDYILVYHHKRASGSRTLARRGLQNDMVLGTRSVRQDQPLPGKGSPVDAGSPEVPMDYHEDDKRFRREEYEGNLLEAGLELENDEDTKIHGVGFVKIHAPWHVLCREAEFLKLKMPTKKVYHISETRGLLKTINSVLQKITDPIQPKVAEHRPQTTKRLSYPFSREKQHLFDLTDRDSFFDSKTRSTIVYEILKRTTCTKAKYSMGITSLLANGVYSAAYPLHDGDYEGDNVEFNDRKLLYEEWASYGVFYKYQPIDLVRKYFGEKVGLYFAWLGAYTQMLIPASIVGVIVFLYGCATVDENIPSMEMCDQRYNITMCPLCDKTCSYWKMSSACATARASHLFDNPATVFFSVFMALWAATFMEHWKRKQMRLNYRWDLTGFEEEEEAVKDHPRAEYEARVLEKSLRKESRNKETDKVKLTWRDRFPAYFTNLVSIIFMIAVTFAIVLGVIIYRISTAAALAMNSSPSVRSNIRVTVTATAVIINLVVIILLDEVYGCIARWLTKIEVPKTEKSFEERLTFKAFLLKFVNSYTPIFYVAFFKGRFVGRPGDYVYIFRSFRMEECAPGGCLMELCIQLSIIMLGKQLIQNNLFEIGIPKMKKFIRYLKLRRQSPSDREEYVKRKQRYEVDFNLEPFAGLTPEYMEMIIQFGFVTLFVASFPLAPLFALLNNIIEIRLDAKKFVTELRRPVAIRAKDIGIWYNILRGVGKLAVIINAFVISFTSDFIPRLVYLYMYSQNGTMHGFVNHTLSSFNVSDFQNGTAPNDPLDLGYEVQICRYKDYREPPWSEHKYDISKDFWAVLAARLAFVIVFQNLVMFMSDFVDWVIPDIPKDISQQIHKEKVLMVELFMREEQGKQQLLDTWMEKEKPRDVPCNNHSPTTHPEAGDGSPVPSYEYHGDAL
# Only a part is listed here, and it is no random draw. Active and inactive are the calls of the source.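 How the source made its calls: active means fluorescence-ratio B-score plate-corrected deviation score at least 3 library SD below zero, with starting fluorescence score within 5 deviations; inactive means the rest.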
# Target: Anoctamin-1 (Mus musculus) (UniProt Q8BHY3)
# Experiment: TMEM16A chloride channel activators or potentiators, primary screen, cell-based, HTS (AID 623877)
# Details: HEK293 TMEM16A/YFP-H148Q/I152L, iodide quench fluorescence; at 10 µM
row,SMILES,outcome
1,CCC(=O)N(c1ccccc1)C1(COC)CCN(CCn2nnn(CC)c2=O)CC1,inactive
2,CCC(=O)N(c1ccccc1)C1(COC)CCN(CCc2cccs2)CC1,inactive
